Three substances from PMC12802937 can be followed below.

By UniProt entry, the sequences of proteins in these tests, tags left out. Residues count along the entry.
UniProt Q02796, 261-332 D287K: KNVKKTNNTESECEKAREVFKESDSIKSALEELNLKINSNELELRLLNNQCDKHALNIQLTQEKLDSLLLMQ
UniProt Q02796, 261-332 D312K: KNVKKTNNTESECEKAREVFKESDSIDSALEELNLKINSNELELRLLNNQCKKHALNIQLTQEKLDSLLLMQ
UniProt Q02796, 261-332 E278K/E282K: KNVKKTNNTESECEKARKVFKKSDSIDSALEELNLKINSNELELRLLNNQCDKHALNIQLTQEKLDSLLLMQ
UniProt Q02796, 261-332: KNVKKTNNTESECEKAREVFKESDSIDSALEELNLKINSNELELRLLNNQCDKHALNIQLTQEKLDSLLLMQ

Common to all, as to test: SPR; Lge1-CT immobilised on a CM5 chip, Bre1-LR flown over; Biacore 8K, 25°C, 20 mM HEPES (pH 7.5), 200 mM sodium chloride, 0.02% Tween 20
On the technique in general: Surface plasmon resonance follows binding to a sensor surface in real time, without labels.

Assay [1] concerns the target Lge1-CT D287K (budding yeast) (UniProt Q02796).
Assay [2] has as its target Lge1-CT D312K (budding yeast) (UniProt Q02796).
Assay [3] concerns the target Lge1-CT E278K/E282K (budding yeast) (UniProt Q02796).
Assay [4] deals with Lge1-CT (Lge1 residues 261–332), intein-chitin binding domain (CBD) tag construct (budding yeast) (UniProt Q02796).

The koff is the first-order rate constant of dissociation. In general, kon refers to the second-order rate constant of association. Low readings indicate slower complex formation, high ones faster complex formation.

For “Bre1-LR (Bre1 residues 227–700, LBD and RING domains), 6× histidine tag (from UniProt Q07457 227-700) (domain or fragment)”, the koff in assay [1] is 0.00921 s⁻¹; in assay [2] it was 0.00138 s⁻¹; in assay [3], 0.00548 s⁻¹. Also, the on-rate (kon) in assay [1] came out at 63500 M⁻¹ s⁻¹; in assay [2], 53400 M⁻¹ s⁻¹; in assay [3], 57300 M⁻¹ s⁻¹.

In assay [4], “Bre1-LR D389K/D390K (from UniProt Q07457 227-700) (domain or fragment)” showed a koff of 0.00425 s⁻¹ and an on-rate constant (kon) of 56300 M⁻¹ s⁻¹.

In assay [4], “Bre1-LR I397K (from UniProt Q07457 227-700) (domain or fragment)” yielded a dissociation rate constant (koff) of 0.00216 s⁻¹ and a kon of 52900 M⁻¹ s⁻¹.
